Data on one molecule can be found in ChEMBL document CHEMBL1129800, “Cycloalkylpyranones and cycloalkyldihydropyrones as HIV protease inhibitors: exploring the impact of ring size on structure-activity relationships” (J Med Chem, 1996).

The term Ki denotes a dissociation constant, usually derived from enzyme kinetics or from competition with a known ligand. Higher therefore signals a looser hold on the target.

This assay concerns the target Human immunodeficiency virus type 1 protease (Human immunodeficiency virus 1, UniProt Q72874). Kind of assay: Binding affinity towards HIV protease was determined.

The molecule `CCC(c1ccccc1)c1c(O)c2c(oc1=O)CCCCCC2` (stereo unspecified) registered a Ki of 0.075 µM.
